Source: PubChem BioAssay
ALDH1A1 block: blocks purified human ALDH1A1 activity. Potency, µM (highest dose often 75.3 µM), inactives show at the top dose activity, negative = inhibition, usual class: inhibitors. 7.3% of 220,000 active. P00352. Purified ALDH1A1, NADH fluorescence, propionaldehyde substrate; active = well fitted inhibition curve with a large enough effect, not every such curve was filed as active; inconclusive = small, poorly fitted or top-dose-only effect, or another doubt; inactive = no such curve, though single readings can be large or run the other way;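 also: potency is read from the fitted curve at half-maximal effect; plate controls were no enzyme wells and a reference inhibitor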
KDM4E inh: JMJD2E (human) inhibition; B2RXH2; JMJD2E catalytic domain, FDH-coupled NADH fluorescence (FDH is formaldehyde dehydrogenase); Potency, µM (series often up to 57.1 µM), for the others: at the highest dose activity change, negative = inhibition, actives largely listed as inhibitors; 1.6% of 230,000 active; AID 2147; active = well fitted inhibition curve with a large enough effect, not every such curve was filed as active; inconclusive = small, poorly fitted or top-dose-only effect, or another doubt; inactive = no such curve, though single readings can be large or run the other way;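 also: potency is read from the fitted curve at half-maximal effect; 0% = wells with enzyme and -100% = buffer wells without enzyme; nearly all actives have a fitted effect of over 50% in size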
Lamin A splicing: LMNA splicing modulation; Potency, µM (doses to about 46.1 µM), inactives show at the top dose ratio change, negative = inhibition, most hits filed as inhibitors; AID 1487; 0.01% of 200,000 active; HeLa LMNA splicing GFP/RFP minigene ratio, 48 h; active = well fitted inhibition curve with a large enough effect in the signal ratio, with a control signal flat, not every such curve was filed as active; inconclusive = small, poorly fitted or top-dose-only effect, or effect the other way, or a change in a side signal; the % refers to the signal ratio; also: potency is read from the fitted curve at half-maximal effect; % is scaled to controls: 0 for no effect and ±100 for the full control effect
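Read-out is the ratio of GFP to DsRed2 object intensity, acquired by 488 nm laser-scanning cytometry on HeLa lamin A-EGFP minigene reporter cells. Compound incubation 48 hrs at 37 °C in Opti-MEM with 2% FBS; DMSO 0.5% final.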
G9a inh: blocks human histone lysine methyltransferase G9a. G9a H3K9 monomethylation, AlphaScreen, 2 h. Potency, µM (doses to about 102 µM), for inactives: top-dose activity, negative = inhibition, actives largely listed as inhibitors. 8.8% of 350,000 active. AID 504332; also: potency is read from the fitted curve at half-maximal effect; % is scaled to controls: 0 for no effect and ±100 for the full control effect; nearly all actives have a fitted effect of over 75% in size
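AlphaScreen read-out: biotin-H3K9 peptide (500 nM) methylation by 20 nM enzyme with 20 uM SAM, 2 h at room temperature after 15 min compound preincubation; anti-monomethyl H3K9 antibody plus donor/acceptor beads, 10 min dark.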
miR-21 reporter: miR-21 reporter, rising signal | HeLa miR-21 FLuc reporter, luciferase, 48 h | Potency, µM (highest dose often 38.3 µM), for inactives: at the top dose reporter change, positive = more light | 340,000 tested, under 10 active | AID 2288; active = well fitted rising curve with a large enough effect; inconclusive = small, poorly fitted or top-dose-only effect; inactive = no such curve, though single readings can be large or run the other way;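 further: % of control where 0% means no effect; miR-21 action dims this reporter so a rising signal means less miR-21 action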
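HeLa cells endogenously expressing miR-21, stably carrying CMV-driven firefly luciferase with a downstream miR-21 binding site, 2000 cells/well. Titrations up to approximately 40 uM, 48 hours; luciferase luminescence read.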
Sfp PPTase inh: blocks B. subtilis Sfp PPTase activity | hit rate 3.5% among 310,000 | Potency, µM, for inactives: max response, negative = inhibition, hits mostly inhibitors | Biochemical Sfp PPTase activity, qHTS | Q9F4F7; active = well fitted inhibition curve with a large enough effect; inconclusive = small, poorly fitted or top-dose-only effect, or another doubt; inactive = no such curve, though single readings can be large or run the other way;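 also: the enzyme is Sfp with the accession as filed and its product quenches rhodamine fluorescence; potency is read from the fitted curve at half-maximal effect; 0% = enzyme reaction without inhibitor and -100% = no enzyme wells; top concentration of the series not given in the record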
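Compounds were incubated with enzyme (final 15 nM) for 15 min at room temperature before substrate addition started the reaction. Fluorescence at 525 nm excitation, 598 nm emission was recorded immediately and after 30 minutes.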
* = called active by the depositor; [ ] = remark or other dose. Only some compounds are listed: those with a hit (about 13% of all), similar ones and a draw of the others. Unless noted, calls follow the shape of the dose curve; as a rule, active = well fitted curve in the direction sought with a large enough effect; inconclusive = small, poorly fitted or top-dose-only effect, or another doubt; inactive = no such curve, though single readings can be large; an effect the other way counts as inactive or inconclusive.

`Cc1cc(N2CCCC2)nc2ccc(NC(=S)NCCCOC(C)C)cc12` gave ALDH1A1 block -4.0%, KDM4E inh inconclusive, G9a inh inconclusive, miR-21 reporter 4.3% and Sfp PPTase inh -6.4%.
Cc1cc(N2CCOCC2)nc2ccc(NC(=S)NCCC(C)C)cc12 was read as G9a inh 2.0%, miR-21 reporter -1.2% and Sfp PPTase inh -12.4%.
For Cc1cc(N2CCN(C)CC2)nc2ccc(NC(=S)NCCC(C)C)cc12 the results were G9a inh 50.1µM*, miR-21 reporter -43.8% and Sfp PPTase inh 4.2%.
COCC(C)Nc1ncnc2c1cnn2-c1cccc(Cl)c1 (stereo not drawn) was read as Lamin A splicing inconclusive, G9a inh 11.3%[59 µM] and miR-21 reporter -36.7%.
For N#CCCn1c(=O)c(-c2ccc(Cl)cc2)nc2cnc(Nc3ccccc3)nc21 the results were ALDH1A1 block 18.6%, Lamin A splicing inconclusive, G9a inh 8.1%[0.501 µM] and Sfp PPTase inh 17.4%.
For CCN(CC)CCNC(=S)Nc1ccc2nc(N3CCCC3)cc(C)c2c1 the results were ALDH1A1 block -0.8%, KDM4E inh inconclusive, Lamin A splicing inconclusive, G9a inh 44.7µM*, miR-21 reporter 18.5% and Sfp PPTase inh inconclusive.
`CC(C)Sc1nc2sccc2c(=O)n1-c1ccccc1` gave G9a inh 39.8µM*, miR-21 reporter -4.5% and Sfp PPTase inh -20.2%.
For Cc1cc2[nH]c(=O)c(=O)[nH]c2cc1S(=O)(=O)NCc1ccc(F)cc1 the results were Lamin A splicing inconclusive, G9a inh 24.4%[59 µM] and miR-21 reporter -9.3%.
Screening Cc1ccc(S(=O)(=O)N[C@@H](CCc2ccccc2)CC(=O)C(C)(C)C)cc1 returned ALDH1A1 block -17.3%[13.5 µM] and Sfp PPTase inh 23.2%.
For O=C1N(C2CCCC2)C[C@@H]2C[C@@H](c3cccn3-c3nccs3)N3CCC[C@@]123 the results were ALDH1A1 block 1.5%, KDM4E inh -14.9%, G9a inh 50.1µM*, miR-21 reporter -1.7% and Sfp PPTase inh -7.6%.
For O=C1N(C2CCCC2)C[C@@H]2C[C@@H](c3cccn3-c3ccccn3)N3CCC[C@@]123 the results were ALDH1A1 block 3.1%, KDM4E inh -3.6%, G9a inh -33.5%, miR-21 reporter -0.9% and Sfp PPTase inh 7.0%.
For O=C(Nc1cccc(S(=O)(=O)N2CCCC2)c1)c1ccccc1OC(F)F the results were miR-21 reporter -0.3% and Sfp PPTase inh 4.9%.
`CCn1cc(C(=O)NCCc2ccc(Cl)cc2)c(=O)c2cc(S(=O)(=O)N3CCOCC3)ccc21` gave G9a inh 4.4%[59 µM] and miR-21 reporter -8.0%.
Screening CN(CC(=O)Nc1ccc(Cl)c(C(F)(F)F)c1)C(=O)c1ccc(N2CCOCC2)c([N+](=O)[O-])c1 returned G9a inh 31.6µM*.
`COc1ccc(NC(=O)CN(C)C(=O)c2ccc(N3CCOCC3)c([N+](=O)[O-])c2)cc1` gave G9a inh 20.0%.

Filtered by structure, the entries above with a carbonyl joined to an NH by a bond outside any ring (four)
For O=C(Nc1cccc(S(=O)(=O)N2CCCC2)c1)c1ccccc1OC(F)F the results were miR-21 reporter -0.3% and Sfp PPTase inh 4.9%.
`CCn1cc(C(=O)NCCc2ccc(Cl)cc2)c(=O)c2cc(S(=O)(=O)N3CCOCC3)ccc21` gave G9a inh 4.4%[59 µM] and miR-21 reporter -8.0%.
Screening CN(CC(=O)Nc1ccc(Cl)c(C(F)(F)F)c1)C(=O)c1ccc(N2CCOCC2)c([N+](=O)[O-])c1 returned G9a inh 31.6µM*.
`COc1ccc(NC(=O)CN(C)C(=O)c2ccc(N3CCOCC3)c([N+](=O)[O-])c2)cc1` gave G9a inh 20.0%.

Additional results
Screening CCC(=O)Nc1ccc(N2CCCCC2)c(C(=O)Nc2ccc(OC)cc2)c1 returned G9a inh 69.8%, miR-21 reporter 16.4% and Sfp PPTase inh -4.6%.
Screening COc1cccc(CN(C)C(=O)c2ccc(N3CCCC3)c([N+](=O)[O-])c2)c1 returned G9a inh 50.1µM*, miR-21 reporter -13.8% and Sfp PPTase inh 1.1%.
COc1ccc(NC(=O)CN(C)C(=O)c2ccc(N3CCCCC3)c([N+](=O)[O-])c2)cc1 was read as G9a inh 50.1µM*.
Screening COc1ccc(CC(=O)Nc2ccc(N3CCCC3)c(C)c2)cc1 returned G9a inh 8.91µM*, miR-21 reporter -18.9% and Sfp PPTase inh -14.9%.
`COc1cccc(CNC(=O)c2ccc(N3CCOCC3)c([N+](=O)[O-])c2)c1` gave G9a inh -6.9%, miR-21 reporter -14.2% and Sfp PPTase inh 17.7%.
For CC1(C)Cc2c(cnn2-c2ccc(F)cc2)C(NC(=O)CCN2CCCCC2=O)C1 (stereo not drawn) the results were G9a inh 12.7%, miR-21 reporter -9.7% and Sfp PPTase inh 2.8%.
Screening CCCS(=O)(=O)c1nc(S(=O)(=O)c2ccc(C)cc2)c(NCCCOC(C)C)s1 returned G9a inh inconclusive and miR-21 reporter 7.4%.
`O=c1[nH]c2ccccc2c(O)c1-c1cc2ccccc2oc1=O` gave ALDH1A1 block 3.7%, KDM4E inh -0.4%, Lamin A splicing 0.2%[46 µM], G9a inh -2.6%, miR-21 reporter 1.0% and Sfp PPTase inh 14.6%.
Screening COc1ccc(NC(=O)CN(C)C(=O)c2ccc(N3CCCCCC3)c([N+](=O)[O-])c2)cc1 returned G9a inh 50.1µM*.
Screening CN(CC(=O)Nc1ccc(Cl)c(C(F)(F)F)c1)C(=O)Cn1cc([N+](=O)[O-])ccc1=O returned G9a inh 6.31µM*.
Screening O=C(c1ccc(Cl)c([N+](=O)[O-])c1)N(c1ccccn1)c1ccccn1 returned ALDH1A1 block 0.2%, KDM4E inh 2.6%, Lamin A splicing -5.8%, G9a inh -0.7%[59 µM], miR-21 reporter 4.8% and Sfp PPTase inh -1.3%.
For Cc1ccc(NC(=O)CN(C)C(=O)c2ccc(Cl)c([N+](=O)[O-])c2)cc1 the results were ALDH1A1 block 17.4%, KDM4E inh -0.5%, Lamin A splicing 5.6%, G9a inh 22.4µM*, miR-21 reporter -1.3% and Sfp PPTase inh 7.8%.
Cc1ccc(NC(=O)CN(C)C(=O)Cn2cc(C(F)(F)F)ccc2=O)cc1 was read as ALDH1A1 block 10.7%, KDM4E inh 4.1%, Lamin A splicing -1.8%, G9a inh 5.8%, miR-21 reporter 0.4% and Sfp PPTase inh 19.4%.
`CCN(C(=O)c1ccc(Cl)c([N+](=O)[O-])c1)c1ccccc1` gave ALDH1A1 block 12.6µM*, KDM4E inh -2.2%, G9a inh inconclusive, miR-21 reporter 1.0% and Sfp PPTase inh -23.2%.
CN(CC(=O)Nc1ccc(Cl)cc1)C(=O)c1ccc(-n2cncn2)c([N+](=O)[O-])c1 was read as G9a inh -3.9%.
For CCc1ccc(CNC(=O)c2cccc(-n3cnc4cccnc43)c2C)cc1 the results were G9a inh -1.5%[59 µM] and miR-21 reporter 11.1%.
`CCN(CC)CC(C)CNC(=O)C1(O)c2ccccc2NC(=O)N1c1ccc(Cl)c(Cl)c1` (stereo not drawn) gave G9a inh 6.0%, miR-21 reporter -3.4% and Sfp PPTase inh 14.5%.
